## Properties, as collected for the OPERA models

Source: data files of OPERA 2.9 (Mansouri et al.), github.com/kmansouri/OPERA.

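These are experimental values that the OPERA curators gathered from public databases to train and test their QSAR models. One number stands for a compound and property, with no spread given. Method, purity and exact conditions of the single measurements are not given. Where a salt, mixture or single isomer is drawn, the source does not say that exactly this form was tested. Some entries may be limits or estimates that an upstream database listed as plain numbers.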

The melting point is given in degrees Celsius. The boiling point refers to atmospheric pressure (760 mmHg), by the definition of the set. logP is the log10 of the octanol-water partition coefficient; higher is more lipophilic. Water solubility is log10 of mol/L, nominally at 25 °C; higher is more soluble. Vapor pressures (log10 mmHg) refer to near room temperature, 15 to 30 °C; higher is more volatile. Henry's law constant (air-water partitioning) is log10 of atm·m3/mol, nominally at 25 °C. fu is the fraction unbound in human plasma, from 0 to 1. Clint is human hepatic intrinsic clearance in µL/min per million cells; 0 means that no clearance was seen.

{"smiles": "CCNC1=Nc2ccc(Cl)cc2C(C)(c2ccccc2)O1", "stereo": "configuration not stated", "name": "Etifoxine", "logP (octanol/water)": "4.09", "log S (log10 mol/L)": "-4.779"}
{"smiles": "NCCc1ccc(O)cc1", "name": "Tyramine", "logP (octanol/water)": "0.72", "log S (log10 mol/L)": "-1.12"}
{"smiles": "CCC(C)(C)OOC(C)(CC)OOC(C)(C)CC", "name": "(1-Methylpropylidene)bis(tert-butyl) peroxide", "log S (log10 mol/L)": "-5.796", "log VP (log10 mmHg)": "1.114"}
{"smiles": "CCCN(CCC)c1c([N+](=O)[O-])cc(C(F)(F)F)cc1[N+](=O)[O-]", "name": "Trifluralin", "fu": "0.00376", "Clint (µL/min/10^6 cells)": "210"}
{"smiles": "N#CC(F)(C(F)(F)F)C(F)(F)F", "name": "2,3,3,3-Tetrafluoro-2-(trifluoromethyl)propanenitrile", "logP (octanol/water)": "4.3", "log S (log10 mol/L)": "-5.856"}
{"smiles": "C=CC(C#N)OC(C)=O", "stereo": "configuration not stated", "name": "1-Cyanoallyl acetate", "logP (octanol/water)": "0.12", "log VP (log10 mmHg)": "-0.709"}
{"smiles": "O=c1oc2ccccc2c(O)c1C1CC(c2ccc(-c3ccc(Br)cc3)cc2)Cc2ccccc21", "stereo": "configuration not stated", "name": "Brodifacoum", "log S (log10 mol/L)": "-8.14", "log VP (log10 mmHg)": "-6.011", "log Henry constant (log10 atm·m3/mol)": "-8.006"}
{"smiles": "COc1cc2c(cc1OC)[C@@]13CCN4CC5=CCO[C@H]6CC(=O)N2[C@H]1[C@H]6[C@H]5C[C@H]43", "name": "Brucine", "boiling point (°C)": "470", "log S (log10 mol/L)": "-2.09"}
{"smiles": "C/C(=CC(=O)N(C)C)/OP(=O)(OC)OC", "fu": "0.8429", "Clint (µL/min/10^6 cells)": "1.89"}
{"smiles": "NNC(=O)NN", "name": "Carbonic dihydrazide", "logP (octanol/water)": "-2.94", "log VP (log10 mmHg)": "-6.268"}
{"smiles": "CSc1ccc(C(=O)C(C)(C)N2CCOCC2)cc1", "name": "2-Methyl-4'-(methylthio)-2-morpholinopropiophenone", "boiling point (°C)": "348.9", "logP (octanol/water)": "3.09", "log S (log10 mol/L)": "-4.193", "log VP (log10 mmHg)": "-5.824"}
{"smiles": "COc1ccc(-c2ccccc2)cc1NNC(=O)OC(C)C", "name": "Bifenazate", "logP (octanol/water)": "3.4", "log Henry constant (log10 atm·m3/mol)": "-8.001", "Clint (µL/min/10^6 cells)": "41.15"}
{"smiles": "CC(C)C(=O)OOC(C)(C)C", "name": "Propaneperoxoic acid, 2-methyl-, 1,1-dimethylethyl ester", "logP (octanol/water)": "2.68", "log S (log10 mol/L)": "-1.607"}
{"smiles": "CN(C)Cc1nnc2n1-c1ccc(Cl)cc1C(c1ccccc1)=NC2", "name": "Adinazolam", "logP (octanol/water)": "4.4", "log S (log10 mol/L)": "-3.719"}
{"smiles": "O=C(NC(=O)c1c(F)cccc1F)Nc1ccc(CON=C(c2ccc(Cl)cc2)C2CC2)cc1", "name": "Flucycloxuron", "log S (log10 mol/L)": "-8.685", "log Henry constant (log10 atm·m3/mol)": "-6.591"}
{"smiles": "Cc1cc(C)nc(NC(=O)NS(=O)(=O)c2ccccc2C(=O)OC2COC2)n1", "name": "Oxasulfuron", "log VP (log10 mmHg)": "-7.824", "log Henry constant (log10 atm·m3/mol)": "-9.608", "fu": "0.06081"}
{"smiles": "O=P(Oc1ccccc1)(Oc1ccccc1)Oc1ccc(-c2ccc(OP(=O)(Oc3ccccc3)Oc3ccccc3)cc2)cc1", "MP (°C)": "-29.77", "logP (octanol/water)": "5.5"}
{"smiles": "Brc1ccc(Oc2ccccc2Br)c(Br)c1", "name": "2,2',4-Tribromodiphenyl ether", "MP (°C)": "20", "log VP (log10 mmHg)": "-4.81"}
{"smiles": "CC1(C)S[C@@H]2[C@H](N)C(=O)N2[C@H]1C(=O)O", "name": "6-Aminopenicillanic acid", "log S (log10 mol/L)": "-1.944", "log VP (log10 mmHg)": "-5.549"}
{"smiles": "CCCSP(=S)(OCC)Oc1ccc(Cl)cc1Cl", "stereo": "configuration not stated", "name": "Prothiofos", "log VP (log10 mmHg)": "-5.648", "log Henry constant (log10 atm·m3/mol)": "-4.521"}
{"smiles": "CCCCCCCCC1(CC)C(=O)NC(=O)NC1=O", "name": "5-Octyl-5-ethylbarbituric acid", "MP (°C)": "113", "log S (log10 mol/L)": "-3.943"}
{"smiles": "O=C(O)C(F)(F)C(F)(F)C(F)(F)C(F)(F)C(F)(F)C(F)(F)C(F)(F)C(F)(F)F", "name": "Perfluorononanoic acid", "log S (log10 mol/L)": "-2.553", "Clint (µL/min/10^6 cells)": "0"}
{"smiles": "C=CCOC(=O)C(C)(C)OC(=O)c1cc(-n2c(=O)cc(C(F)(F)F)n(C)c2=O)ccc1Cl", "name": "Butafenacil", "boiling point (°C)": "301.7", "log VP (log10 mmHg)": "-10.26"}
{"smiles": "NCCc1ccc(S(N)(=O)=O)cc1", "name": "4-(2-Aminoethyl)benzenesulfonamide", "logP (octanol/water)": "-2.75", "log VP (log10 mmHg)": "-7.72"}
{"smiles": "NC(=O)CF", "name": "2-Fluoroacetamide", "log VP (log10 mmHg)": "-0.004", "log Henry constant (log10 atm·m3/mol)": "-7.652"}
{"smiles": "Clc1c(Cl)c(Cl)c(-c2ccccc2)c(Cl)c1Cl", "name": "2,3,4,5,6-Pentachlorobiphenyl", "MP (°C)": "124", "log VP (log10 mmHg)": "-4.595"}
{"smiles": "C[C@@H](Cc1ccccc1)NC(=O)[C@@H](N)CCCCN", "name": "Lisdexamfetamine", "MP (°C)": "121", "logP (octanol/water)": "1.06", "log S (log10 mol/L)": "-3.478"}
{"smiles": "COc1cc(C)c(C(=O)c2c(OC)ccc(Br)c2C)c(OC)c1OC", "name": "Metrafenone", "log S (log10 mol/L)": "-5.921", "log VP (log10 mmHg)": "-5.939", "log Henry constant (log10 atm·m3/mol)": "-5.885"}
{"smiles": "CO/C=C(/C(=O)OC)c1ccccc1COc1cccc(C(F)(F)F)n1", "name": "Picoxystrobin", "logP (octanol/water)": "3.68", "log S (log10 mol/L)": "-5.07", "log VP (log10 mmHg)": "-6.27", "log Henry constant (log10 atm·m3/mol)": "-8.228", "Clint (µL/min/10^6 cells)": "57.1"}
{"smiles": "Cc1cc(Cc2cc(C)c(OCC3CO3)c(C)c2)cc(C)c1OCC1CO1", "stereo": "configuration not stated", "MP (°C)": "60.85", "logP (octanol/water)": "4.17", "log S (log10 mol/L)": "-5.704"}
{"smiles": "O=C([O-])C(F)(F)OC1(F)OC(F)(F)OC1(F)OC(F)(F)F.[NH4+]", "stereo": "configuration not stated", "name": "Ammonium perfluoro[(5-methoxy-1,3-dioxolan-4-yl)oxy]acetate", "MP (°C)": "64.62", "logP (octanol/water)": "-0.38", "log VP (log10 mmHg)": "-6.488"}
{"smiles": "O=C(N[C@H]1CN2CCC1CC2)c1ccc2c(c1)OCCO2", "fu": "1", "Clint (µL/min/10^6 cells)": "3.688"}
{"smiles": "O=C(O)C(F)(F)OC1(F)OC(F)(F)OC1(F)OC(F)(F)F", "stereo": "configuration not stated", "name": "Perfluoro(2-[5-methoxy-1,3-dioxolan-4-yloxy]acetic acid)", "boiling point (°C)": "169", "log VP (log10 mmHg)": "-0.815"}
{"smiles": "FC(F)OC(F)(F)C(F)Cl", "stereo": "configuration not stated", "name": "Enflurane", "log S (log10 mol/L)": "-1.515", "log VP (log10 mmHg)": "2.243"}
{"smiles": "CN(C)C(=S)[S-].[Na+]", "name": "Sodium dimethyldithiocarbamate", "logP (octanol/water)": "-2.305", "log VP (log10 mmHg)": "-5.859"}
{"smiles": "C[C@H]1CC(=O)C=C2CC[C@@H]3[C@H](CC[C@]4(C)C(=O)CC[C@@H]34)[C@]21C", "name": "(1alpha)-1-Methylandrost-4-ene-3,17-dione", "logP (octanol/water)": "2.65", "log S (log10 mol/L)": "-3.958"}